Values quoted from earlier work as cited in US20030008014A1, “Truncated apolipoprotein B-containing lipoprotein particles for delivery of compounds to tissues or cells” (priority 2001, published 2003).

Test system: HER2-positive breast tumors
Settings: simultaneous administration with paclitaxel

For “Herceptin™: anti-HER2 monoclonal antibody”, the “efficacy of the combination versus single agents” value is given as “greater efficacy than either agent administered alone”.
